Results taken from patent publication US20210138080A1, “CONJUGATES” (GLYKOS BIOMEDICAL OY, priority 2018, published 2021).

Tested on: HER2-positive cancer cells xenograft tumors
Test: Galectin activity in xenograft tumors of tumour-bearing mice
Format: in vivo
Conditions: 10 mg/kg daily intravenous in PBS
Protocol: HER2-positive cancer cells are cultured as described above, injected subcutaneously to mice (about 1-10 million cells/mouse in Matrigel), and allowed to form xenograft tumors of about 100 mm^3. Mice are divided into groups that receive daily 100 μl intravenous injections of either I) PBS (vehicle control), II) 10 mg/kg trastuzumab in PBS (antibody control), III) 10 mg/kg DAR=2 6-succinyl-33DFTG-trastuzumab in PBS, or IV) 10 mg/kg DAR=8 6-succinyl-33DFTG-trastuzumab in PBS. […] The ADC therapy is further combined with immune checkpoint inhibitor therapy by intravenous injection of therapeutic dose of anti-PD-1 antibody or anti-PD-L1 antibody in further groups of mice for even greater anti-cancer activity.

DAR=2 6-succinyl-33DFTG-trastuzumab
Galectin activity in tumors compared to groups I-II: Lower Galectin activity

DAR=8 6-succinyl-33DFTG-trastuzumab
Galectin activity in tumors compared to groups I-II: Lower Galectin activity
